From patent US11407721B2, “CIS-morpholinone and other compounds as MDM2 inhibitors for the treatment of cancer” (AMGEN INC., priority 2013, dated 2022)

Chains of the proteins cited; added tags and fusions are not shown. Residues count along the entry.
UniProt Q00987, 1-188 limits assumed: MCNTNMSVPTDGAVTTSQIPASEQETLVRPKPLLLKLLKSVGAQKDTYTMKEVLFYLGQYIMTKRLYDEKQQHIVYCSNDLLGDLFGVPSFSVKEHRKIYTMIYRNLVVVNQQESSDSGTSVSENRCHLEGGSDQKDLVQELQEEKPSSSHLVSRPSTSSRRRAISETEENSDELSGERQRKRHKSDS

Molecular target: interaction between HDM2 and p53 (GST-hMDM2 (1-188) / biotinylated-p53 (1-83)) (Homo sapiens (Human), UniProt Q00987)
Test: HTRF2 Assay (improved HTRF assay)
Format: binding
Settings: read-out: HTRF2 IC50; 0.2 nM GST-hMDM2 (1-188), 0.5 nM biotinylated-p53 (1-83), 100 mM KF

| IC50 [µM] | Structure (SMILES) |
| --- | --- |
| 1.53 | CCC[C@@H](C(=O)N1CCN(CC2CC2)CC1)N1C(=O)[C@@H](Cc2ccc(I)cc2)O[C@H](c2ccc(Cl)cc2)[C@@H]1c1ccc(Cl)cc1 (relative stereo) |
| 0.707 | CCC[C@H](C(=O)O)N1C(=O)[C@H](Cc2ccc(F)cc2)O[C@@H](c2ccc(Cl)cc2)[C@H]1c1ccc(Br)cc1 (relative stereo) |
| 4.21 | O=C(O)C[C@H]1O[C@H](c2cccc(Cl)c2)[C@H](c2ccc(Cl)cc2)N(S(=O)(=O)C2CC2)C1=O (relative stereo) |
| 5.5 | CCC[C@H](CNC(=O)CC(=O)O)N1C(=O)CO[C@@H](c2ccc(Cl)cc2)[C@H]1c1ccc(Cl)cc1 (relative stereo) |
| 6.25 | O=C1CO[C@@H](c2cccc(Cl)c2)[C@@H](c2ccc(Cl)cc2)N1CC1CCC1 (relative stereo) |
| 1.52 | O=C(O)[C@@H](c1ccccc1)N1C(=O)[C@H](Cc2ccc(F)cc2)O[C@@H](c2ccc(Cl)cc2)[C@H]1c1ccc(Cl)cc1 (relative stereo) |
| 10.8 | O=C(O)C[C@H]1O[C@H](c2cccc(Cl)c2)[C@H](c2ccc(Cl)cc2)N(C(=O)C2CC2)C1=O (relative stereo) |
| 1.6 | CCC[C@H](C(=O)O)N1C(=O)[C@H](CC(=O)N2CCOCC2)O[C@@H](c2cccc(Cl)c2)[C@H]1c1ccc(Cl)cc1 (relative stereo) |
| 0.374 | CCC[C@H](C(=O)O)N1C(=O)[C@H](Cc2ccc(S(C)(=O)=O)cc2)O[C@@H](c2ccc(Cl)cc2)[C@H]1c1ccc(Cl)cc1 (relative stereo) |
| 0.646 | CCC[C@H](C(=O)NCC1(C(=O)O)CCCC1)N1C(=O)[C@H](Cc2ccc(C#N)cc2)O[C@@H](c2ccc(Cl)cc2)[C@H]1c1ccc(Cl)cc1 (relative stereo) |
| 5.9 | CCC[C@H](C(=O)O)N1C(=O)CO[C@H](c2ccc(Cl)cc2)[C@@H]1c1cc2ccccc2[nH]1 (relative stereo) |
| 6.06 | CC(=O)NNC(=O)C[C@H]1O[C@H](c2cccc(Cl)c2)[C@H](c2ccc(Cl)cc2)N(CC2CC2)C1=O (relative stereo) |
| 2.38 | CCC[C@H](C(N)=O)N1C(=O)[C@H](Cc2ccc(F)cc2)O[C@@H](c2ccc(Cl)c(Cl)c2)[C@H]1c1ccc(Cl)cc1 (relative stereo) |
| 3.05 | CCC[C@H](C(=O)NCCC(=O)O)N1C(=O)CO[C@@H](c2ccc(Cl)cc2)[C@H]1c1ccc(Cl)cc1 (relative stereo) |
| 6.3 | N#CCC[C@H]1O[C@H](c2cccc(Cl)c2)[C@H](c2ccc(Cl)cc2)N(CC2CC2)C1=O (relative stereo) |
| 16.8 | CCC[C@H](C(=O)O)N1C(=O)CO[C@H](c2cccc(Cl)c2)[C@@H]1c1ccc(Cl)cc1 (relative stereo) |
| 17.5 | CN(C)Cc1ccc(C[C@H]2O[C@H](c3ccc(Cl)cc3)[C@H](c3ccc(Cl)cc3)N(C)C2=O)cc1 (relative stereo) |
| 2.25 | O=C(O)[C@@H](c1cccc(Cl)c1)N1C(=O)[C@H](Cc2ccc(F)cc2)O[C@@H](c2ccc(Cl)cc2)[C@H]1c1ccc(Cl)cc1 (relative stereo) |
| 7.85 | O=C(O)[C@@H](C1CC1)N1C(=O)[C@H](Cc2ccc(F)cc2)O[C@@H](c2cccc(Cl)c2)[C@H]1c1ccc(Cl)cc1 (relative stereo) |
| 2.35 | CCCCN1C(=O)[C@@H](CC(=O)O)O[C@H](c2cccc(Cl)c2)[C@@H]1c1ccc(Cl)cc1 (relative stereo) |
| 4.53 | CCC[C@H](C(=O)NCCN1CCOCC1)N1C(=O)CO[C@@H](c2ccc(Cl)cc2)[C@H]1c1ccc(Cl)cc1 (relative stereo) |
| 7.9 | O=C1CO[C@@H](c2cccc(Cl)c2)[C@@H](c2ccc(Cl)cc2)N1S(=O)(=O)C1CC1 (relative stereo) |

| IC50 [µM] | Structure (SMILES) |
| --- | --- |
| 2.5 | CCC[C@H](C(N)=O)N1C(=O)[C@H](Cc2ccc(F)cc2)O[C@@H](c2cccc(Cl)c2)[C@H]1c1ccc(Cl)cc1 (relative stereo) |
| 4 | CCC[C@H](CN1CCOCC1)N1C(=O)CO[C@@H](c2ccc(Cl)cc2)[C@H]1c1ccc(Cl)cc1 (relative stereo) |
| 6.3 | CN1C(=O)[C@@H](Cc2ccc(C#N)c(F)c2)O[C@H](c2ccc(Cl)cc2)[C@@H]1c1ccc(Cl)cc1 (relative stereo) |
| 4.33 | CN1C(=O)[C@@H](Cc2ccc(S(C)(=O)=O)cc2)O[C@H](c2ccc(Cl)cc2)[C@@H]1c1ccc(Cl)cc1 (relative stereo) |
| 4.22 | O=C(O)C[C@H]1O[C@H](c2ccc(F)c(Cl)c2)[C@H](c2ccc(Cl)cc2)N(CC2CC2)C1=O (relative stereo) |
| 13.7 | O=C1CO[C@@H](c2cccc(Cl)c2)[C@@H](c2ccc(Cl)cc2)N1Cc1cscn1 (relative stereo) |
| 0.816 | CCC[C@H](C(=O)O)N1C(=O)[C@H](Cc2ccc(C(N)=O)cc2)O[C@@H](c2ccc(Cl)cc2)[C@H]1c1ccc(Cl)cc1 (relative stereo) |
| 0.892 | CCC[C@H](C(=O)N1CCC(C(=O)O)CC1)N1C(=O)[C@H](Cc2ccc(I)cc2)O[C@@H](c2ccc(Cl)cc2)[C@H]1c1ccc(Cl)cc1 (relative stereo) |
| 3.85 | CCC[C@H](C(=O)O)N1C(=O)[C@H](CC(N)=O)O[C@@H](c2ccc(Cl)cc2)[C@H]1c1ccc(Cl)cc1 (relative stereo) |
| 16.9 | O=C(O)[C@@H](C1CC1)N1C(=O)CO[C@H](c2cccc(Cl)c2)[C@@H]1c1ccc(Cl)cc1 (relative stereo) |
| 17.4 | CCC[C@H](C(=O)OCC)N1C(=O)[C@H](Cc2ccc(C#N)cc2F)O[C@@H](c2ccc(Cl)cc2)[C@H]1c1ccc(Cl)cc1 (relative stereo) |
| 4.96 | Cc1nnc(C[C@H]2O[C@H](c3cccc(Cl)c3)[C@H](c3ccc(Cl)cc3)N(CC3CC3)C2=O)o1 (relative stereo) |
| 0.305 | CCC[C@H](C(=O)NS(C)(=O)=O)N1C(=O)[C@H](Cc2ccc(C#N)cc2)O[C@@H](c2ccc(Cl)cc2)[C@H]1c1ccc(Cl)cc1 (relative stereo) |
| 7.81 | CCC[C@H](C(=O)O)N1C(=O)CO[C@@H](c2cccc(Cl)c2)[C@H]1c1ccc(Cl)cc1 (relative stereo) |
| 0.479 | CCC[C@H](C(=O)N1CC(C(=O)O)C1)N1C(=O)[C@H](Cc2ccc(C#N)cc2)O[C@@H](c2ccc(Cl)cc2)[C@H]1c1ccc(Cl)cc1 (relative stereo) |
| 4.65 | CCC[C@@H](CN)N1C(=O)[C@@H](Cc2ccc(F)cc2)O[C@H](c2ccc(Cl)cc2)[C@@H]1c1ccc(Cl)cc1 (relative stereo) |
| 20 | CCC[C@H](C(=O)O)N1C(=O)CO[C@@](C)(c2cccc(Cl)c2)[C@H]1c1ccc(Cl)cc1 (relative stereo) |
| 9.16 | CCC[C@H](C(N)=O)N1C(=O)CO[C@@H](c2ccc(Cl)c(Cl)c2)[C@H]1c1ccc(Cl)cc1 (relative stereo) |
| 3.69 | CCC[C@H](C(=O)O)N1C(=O)[C@H](Cc2ccc(F)cc2)O[C@@H](c2ccc(Cl)c(Cl)c2)[C@H]1c1ccc(Cl)cc1 (relative stereo) |
| 16.1 | N#CC1(CN2C(=O)[C@@H](CC(=O)O)O[C@H](c3cccc(Cl)c3)[C@@H]2c2ccc(Cl)cc2)CC1 (relative stereo) |
| 2.05 | O=C(C[C@H]1O[C@H](c2cccc(Cl)c2)[C@H](c2ccc(Cl)cc2)N(CC2CC2)C1=O)NCCN1CCOCC1 (relative stereo) |
| 2.69 | CCC[C@H](C(=O)O)N1C(=O)CO[C@@H](c2ccc(Cl)cc2)[C@H]1c1ccc(Br)cc1 (relative stereo) |

| Structure (SMILES) | IC50 [µM] |
| --- | --- |
| N#Cc1cccc([C@H]2OCC(=O)N(CC3CC3)[C@H]2c2ccc(Cl)cc2)c1 (relative stereo) | 19 |
| CN1C(=O)[C@@H](Cc2ccc(C#N)cc2)O[C@H](c2ccc(Cl)cc2)[C@@H]1c1ccc(Cl)cc1 (relative stereo) | 6.3 |
| CN1C(=O)[C@@H](Cc2ccc(C(=O)O)cc2)O[C@H](c2ccc(Cl)cc2)[C@@H]1c1ccc(Cl)cc1 (relative stereo) | 7.99 |
| CCC[C@H](C(=O)N1CCN(CC(=O)O)CC1)N1C(=O)[C@H](Cc2ccc(C#N)cc2)O[C@@H](c2ccc(Cl)cc2)[C@H]1c1ccc(Cl)cc1 (relative stereo) | 0.674 |
